Blood plasma ratio data for one compound are collected here from ChEMBL document CHEMBL3526103, “Prediction of in vivo hepatic clearance and half-life of drug candidates in human using chimeric mice with humanized liver” (Drug Metab Dispos, 2012).

The data set in a line: clinical. The settings on record: human, blood and plasma, iv.

Regarding `O=C(O)Cc1ccccc1Nc1c(Cl)cccc1Cl` [DICLOFENAC], the blood plasma ratio amounted to 0.55.
